# Measurements: ChEMBL document CHEMBL3880411, “Multikinase inhibitors for use in the treatment of cancer” (2009)
# Amino acid sequences for entries named in this document (tags omitted). A change or cut given only in a name is not applied to a line headed by its entry.
# UniProt P07948: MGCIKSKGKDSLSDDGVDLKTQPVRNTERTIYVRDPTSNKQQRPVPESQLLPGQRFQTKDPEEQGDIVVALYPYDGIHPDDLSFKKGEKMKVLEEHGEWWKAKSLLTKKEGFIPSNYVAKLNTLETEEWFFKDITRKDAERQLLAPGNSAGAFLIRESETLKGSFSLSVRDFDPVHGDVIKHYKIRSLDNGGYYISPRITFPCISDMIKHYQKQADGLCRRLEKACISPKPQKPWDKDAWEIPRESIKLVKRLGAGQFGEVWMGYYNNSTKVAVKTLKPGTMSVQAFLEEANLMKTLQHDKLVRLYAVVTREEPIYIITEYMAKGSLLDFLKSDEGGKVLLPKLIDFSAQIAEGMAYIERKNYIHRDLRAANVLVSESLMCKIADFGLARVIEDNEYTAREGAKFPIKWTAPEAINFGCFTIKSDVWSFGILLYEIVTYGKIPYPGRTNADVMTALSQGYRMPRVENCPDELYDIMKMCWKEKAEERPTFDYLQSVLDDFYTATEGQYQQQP
# UniProt P36888, whole entry: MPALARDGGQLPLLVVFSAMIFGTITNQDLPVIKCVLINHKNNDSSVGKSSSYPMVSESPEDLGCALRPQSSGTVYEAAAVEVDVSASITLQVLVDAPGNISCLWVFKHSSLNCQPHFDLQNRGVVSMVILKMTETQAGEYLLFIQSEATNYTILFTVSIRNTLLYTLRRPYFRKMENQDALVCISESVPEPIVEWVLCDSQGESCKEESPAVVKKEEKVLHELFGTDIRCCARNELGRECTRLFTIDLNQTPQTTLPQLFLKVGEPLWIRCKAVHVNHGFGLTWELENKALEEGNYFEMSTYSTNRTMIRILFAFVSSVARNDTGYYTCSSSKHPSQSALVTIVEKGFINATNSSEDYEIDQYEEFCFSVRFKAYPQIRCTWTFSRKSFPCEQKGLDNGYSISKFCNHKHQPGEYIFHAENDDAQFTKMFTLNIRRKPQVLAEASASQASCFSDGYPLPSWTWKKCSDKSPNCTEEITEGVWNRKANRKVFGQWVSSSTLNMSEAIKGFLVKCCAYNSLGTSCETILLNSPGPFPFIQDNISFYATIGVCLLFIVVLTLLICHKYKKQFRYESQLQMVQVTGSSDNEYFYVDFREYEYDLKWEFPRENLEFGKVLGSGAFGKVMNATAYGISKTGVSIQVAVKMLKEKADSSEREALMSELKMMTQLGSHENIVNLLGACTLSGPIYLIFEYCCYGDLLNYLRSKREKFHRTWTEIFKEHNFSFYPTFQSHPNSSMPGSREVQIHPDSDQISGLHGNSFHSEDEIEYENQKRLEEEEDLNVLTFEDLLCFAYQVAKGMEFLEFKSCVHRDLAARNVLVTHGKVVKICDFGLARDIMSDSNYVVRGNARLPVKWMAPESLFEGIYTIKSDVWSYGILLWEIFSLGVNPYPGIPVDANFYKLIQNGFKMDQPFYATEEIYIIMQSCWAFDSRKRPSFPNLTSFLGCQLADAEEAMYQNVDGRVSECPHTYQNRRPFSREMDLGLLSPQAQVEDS
# UniProt P06241, whole entry, looked up: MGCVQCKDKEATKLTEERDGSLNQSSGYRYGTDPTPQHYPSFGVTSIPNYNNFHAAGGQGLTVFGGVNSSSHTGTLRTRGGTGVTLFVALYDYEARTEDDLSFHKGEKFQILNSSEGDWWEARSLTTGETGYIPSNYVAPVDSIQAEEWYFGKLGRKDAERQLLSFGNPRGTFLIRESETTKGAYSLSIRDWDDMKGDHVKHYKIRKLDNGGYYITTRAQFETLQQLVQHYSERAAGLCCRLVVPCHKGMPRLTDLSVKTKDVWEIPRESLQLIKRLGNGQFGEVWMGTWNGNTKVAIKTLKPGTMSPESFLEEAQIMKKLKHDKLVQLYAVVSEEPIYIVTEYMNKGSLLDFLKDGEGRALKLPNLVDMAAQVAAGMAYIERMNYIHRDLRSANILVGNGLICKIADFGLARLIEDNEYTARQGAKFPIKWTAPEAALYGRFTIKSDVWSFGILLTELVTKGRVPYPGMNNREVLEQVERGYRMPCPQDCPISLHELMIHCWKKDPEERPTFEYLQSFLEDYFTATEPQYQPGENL
# UniProt Q16620, whole entry, looked up: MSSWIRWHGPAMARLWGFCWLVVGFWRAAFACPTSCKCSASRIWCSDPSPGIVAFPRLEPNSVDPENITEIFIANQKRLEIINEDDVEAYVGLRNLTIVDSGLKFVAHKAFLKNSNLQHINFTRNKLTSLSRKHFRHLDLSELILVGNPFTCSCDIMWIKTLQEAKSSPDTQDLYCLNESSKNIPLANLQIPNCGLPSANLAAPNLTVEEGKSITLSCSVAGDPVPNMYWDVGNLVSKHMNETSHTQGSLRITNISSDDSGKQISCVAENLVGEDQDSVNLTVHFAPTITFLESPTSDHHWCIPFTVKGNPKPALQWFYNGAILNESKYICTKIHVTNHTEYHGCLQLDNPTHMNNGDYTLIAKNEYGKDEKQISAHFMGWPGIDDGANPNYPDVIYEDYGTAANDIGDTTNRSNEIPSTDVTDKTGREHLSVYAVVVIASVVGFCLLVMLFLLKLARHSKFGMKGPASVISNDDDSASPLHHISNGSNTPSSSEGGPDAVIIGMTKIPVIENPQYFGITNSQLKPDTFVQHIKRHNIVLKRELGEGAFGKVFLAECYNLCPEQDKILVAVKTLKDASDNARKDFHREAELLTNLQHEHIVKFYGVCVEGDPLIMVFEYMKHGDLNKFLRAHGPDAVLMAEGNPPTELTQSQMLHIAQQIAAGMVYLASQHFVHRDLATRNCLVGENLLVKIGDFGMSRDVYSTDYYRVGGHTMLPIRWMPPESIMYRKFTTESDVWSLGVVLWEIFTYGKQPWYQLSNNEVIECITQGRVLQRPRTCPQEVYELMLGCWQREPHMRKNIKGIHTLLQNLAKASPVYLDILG
# Legend:
# [1] = biological target: Tyrosine-protein kinase Lyn (Homo sapiens) (UniProt P07948); assay: Inhibition of human Lyn assessed as remaining activity at 1 uM after 40 mins in presence of [gamma33P-ATP] by scintillation counting
# [2] = biological target: Receptor-type tyrosine-protein kinase FLT3 (Homo sapiens) (UniProt P36888); assay: Inhibition of human Flt3 assessed as remaining activity at 1 uM after 40 mins in presence of [gamma33P-ATP] by scintillation counting
# [3] = biological target: Proto-oncogene tyrosine-protein kinase Src (Homo sapiens) (UniProt P12931); assay: Inhibition of human c-Src assessed as remaining activity at 0.1 uM after 40 mins in presence of [gamma33P-ATP] by scintillation counting
# [4] = biological target: Receptor-type tyrosine-protein kinase FLT3 (Homo sapiens) (UniProt P36888); assay: Inhibition of human Flt3 assessed as remaining activity at 0.1 uM after 40 mins in presence of [gamma33P-ATP] by scintillation counting
# [5] = biological target: Tyrosine-protein kinase Lyn (Homo sapiens) (UniProt P07948); assay: Inhibition of human Lyn assessed as remaining activity at 0.1 uM after 40 mins in presence of [gamma33P-ATP] by scintillation counting
# [6] = biological target: Tyrosine-protein kinase Fyn (Homo sapiens) (UniProt P06241); assay: Inhibition of human Fyn assessed as remaining activity at 0.1 uM after 40 mins in presence of [gamma33P-ATP] by scintillation counting
# [7] = biological target: Tyrosine-protein kinase Fyn (Homo sapiens) (UniProt P06241); assay: Inhibition of human Fyn assessed as remaining activity at 1 uM after 40 mins in presence of [gamma33P-ATP] by scintillation counting
# [8] = biological target: BDNF/NT-3 growth factors receptor (Homo sapiens) (UniProt Q16620); assay: Inhibition of human TrkB assessed as remaining activity at 1 uM after 40 mins in presence of [gamma33P-ATP] by scintillation counting
# [9] = biological target: Proto-oncogene tyrosine-protein kinase Src (Homo sapiens) (UniProt P12931); assay: Inhibition of human c-Src assessed as remaining activity at 1 uM after 40 mins in presence of [gamma33P-ATP] by scintillation counting
# [10] = biological target: BDNF/NT-3 growth factors receptor (Homo sapiens) (UniProt Q16620); assay: Inhibition of human TrkB assessed as remaining activity at 0.1 uM after 40 mins in presence of [gamma33P-ATP] by scintillation counting
structure (smiles),measurement,setting,value
CNc1cc(O)c2c(c1)/C=C/C[C@H](O)[C@H](O)C(=O)/C=C\[C@@H](C)[C@H](C)OC2=O,Activity,[1],2%
same,Activity,[2],8%
same,Activity,[3],47%
same,Activity,[4],48%
same,Activity,[5],15%
same,Activity,[6],25%
same,Activity,[7],2%
same,Activity,[8],4%
same,Activity,[9],5%
same,Activity,[10],15%
